Apparent affinities of Ab-14 variants for a coronavirus HR2 peptide

Binding partner: SARS-CoV-2 spike HR2 peptide, sequence PDVDLGDISGINAS.

Parent: Ab-14, a human scFv built as VH, the linker GGGGSGGGGSGGGGS, VL. Only the CDRs of the light chain vary.
VH: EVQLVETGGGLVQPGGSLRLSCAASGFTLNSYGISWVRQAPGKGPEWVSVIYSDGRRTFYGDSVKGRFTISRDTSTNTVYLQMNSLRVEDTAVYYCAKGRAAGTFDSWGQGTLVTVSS
VL: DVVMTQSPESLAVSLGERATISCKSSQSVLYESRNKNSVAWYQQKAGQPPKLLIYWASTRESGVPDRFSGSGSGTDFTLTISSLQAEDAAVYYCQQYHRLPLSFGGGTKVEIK

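The starting antibody came from a phage panning campaign against this peptide. Designed CDR sequences, proposed from the first random library and measured here. Their group label is 14L_GP_Gen (GP: Gaussian process model; Gen: genetic algorithm; a sequence that several methods proposed may carry one label only). The scFvs were displayed on barcoded MATa yeast, the peptide on MATalpha yeast. After mating in shaken culture at 30 °C for 16 h, diploids were selected and their barcode pairs sequenced. Read counts were normalised to the haploid input and turned into Kd by a linear fit to BCL2-family pairs of known affinity, for each replicate. Mating was done six times.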

Positions count from residue 1 of the parent VL; S25V puts V in place of S.
Affinities are written as log10 Kd with Kd in nM; a lower number is a better binder.
Background: pairings of all light chain designs with three empty control strains gave a value in 4% of cases (median 2.64, 5th percentile 1.59). Values in that range, when seen in few replicates, are hard to tell from nonspecific mating. The control count says in how many pairings with the empty strains this scFv gave a signal, with their mean in brackets.
The range of this assay differs from that of the first round, and the authors advise against merging the two.
The authors averaged sequences with at least three values out of six and counted those with two or fewer as poor binders.

| changes | log10 Kd (nM) by replicate | signal with controls |
|---|---|---|
| S25V V29M W56N E61L | 0.33 0.11 -0.09 0.01 0.27 0.29 | 1/18 (3.92) |
| V29E K36F W56N | 0.29 -0.08 -0.22 -0.49 -0.21 -0.03 | 0/18 |
| S25L Q27G V29M W56H | 0.42 0.26 0.34 0.04 0.31 0.30 | 2/18 (3.31) |
| S25L S26D V29W W56N T59Q E61L | 0.23 0.13 -0.17 -0.17 0.00 0.13 | 3/18 (3.11) |
| S25L W56E T59K | 0.18 -0.01 -0.11 -0.25 -0.09 -0.16 | 0/18 |
| S25L S26Q L30Q W56H | 0.52 0.66 0.66 0.62 0.32 0.43 | 3/18 (2.77) |
| S25L V29Q W56N E61S | 0.10 0.06 -0.01 -0.14 -0.07 0.01 | 1/18 (2.71) |
| S25V V29Q W56H | 0.17 0.00 0.02 -0.17 0.02 0.04 | 0/18 |
| S25M L30W Y31M W56D | 0.54 0.36 0.54 0.22 0.57 0.63 | 1/18 (3.85) |
| S25L V29Q L30E W56N | -0.17 -0.27 -0.37 -0.45 -0.44 -0.33 | 2/18 (2.72) |
| S25L S26Q V29A W56N | -0.06 -0.11 -0.18 -0.26 -0.17 -0.05 | 3/18 (2.16) |
| S25L V29M L30D W56N T59Q | 0.01 -0.15 0.02 -0.18 -0.08 0.09 | 0/18 |
| S25L N35M W56N T59Q S62Q | 0.74 0.41 0.28 0.26 0.37 0.69 | 0/18 |
| S25L S33T W56N | -0.17 -0.27 -0.32 -0.42 -0.32 -0.17 | 2/18 (3.99) |
| S25L S26M L30P W56N | 0.02 -0.08 -0.26 -0.24 -0.29 -0.17 | 2/18 (2.24) |
| S25V V29Q S38A W56Q | 0.04 -0.31 -0.74 -0.62 -0.66 -0.46 | 0/18 |
| S25L V29E W56N T59K | 0.02 -0.11 -0.29 -0.05 -0.27 -0.14 | 2/18 (2.41) |
| S25L Q27F W56E | 0.14 0.12 -0.09 -0.23 -0.11 -0.11 | 1/18 (1.52) |
| K24H S25L V29H W56N | 0.56 0.49 0.10 1.02 0.63 1.04 | 0/18 |
| S25L W56H E61L | 0.43 0.34 0.32 0.50 0.28 0.44 | 4/18 (2.85) |
| S25L S26Q L30G W56H | -0.02 -0.07 -0.21 -0.10 -0.19 -0.03 | 0/18 |
| S25L S26Q V29W K36C W56N | 0.31 0.23 0.34 0.42 0.36 0.63 | 0/18 |
| S25L S26P W56Q T59Q | 0.23 0.30 0.11 0.15 0.16 0.21 | 1/18 (2.81) |
| S25L N35W W56N E61M | -0.19 -0.06 -0.04 -0.20 -0.07 0.14 | 0/18 |
| S25L Q27G W56D | -0.17 -0.24 -0.17 -0.57 -0.45 -0.27 | 0/18 |
| S25L S26P V29G W56H | -0.02 -0.07 -0.25 -0.24 -0.16 0.00 | 0/18 |
| S25V V29E W56N E61M | 0.56 0.43 0.09 0.14 0.17 0.35 | 0/18 |
| S25L V29M W56N S62K | -0.12 -0.23 -0.26 -0.50 -0.37 -0.15 | 1/18 (2.94) |
| S25L S26Q Q27G V29E W56N | -0.24 -0.26 -0.34 -0.39 -0.26 -0.09 | 1/18 (1.92) |
| S25L S26E V29H W56Q | -0.03 -0.11 -0.20 -0.19 -0.17 -0.16 | 0/18 |
| S25L V29M S38N W56E T59Q | 0.18 0.31 0.29 0.03 0.27 0.42 | 0/18 |
| S25L V29Q W56N T59Q S62E | 0.13 0.16 -0.48 -0.48 -0.11 -0.14 | 0/18 |
| S25L L30M K36P W56N E61M | 0.00 -0.11 -0.02 -0.10 -0.14 0.08 | 0/18 |
| S25L V29D W56N E61Y | 0.04 0.09 -0.05 -0.12 -0.17 0.26 | 1/18 (4.36) |
| S25L S33M W56S | -0.03 -0.14 -0.13 -0.27 -0.07 -0.08 | 2/18 (3.27) |
| S26E V29Q W56N T59Q | -0.14 -0.03 -0.15 -0.18 -0.28 -0.30 | 0/18 |
| S25L S26K V29E W56N | 0.29 0.27 -0.01 -0.12 -0.15 0.53 | 0/18 |
| S25L V29D S38A W56E T59Q | -0.09 -0.02 -0.19 -0.20 -0.14 -0.14 | 0/18 |
| S25L Q27M V29E W56N S62E | 0.04 -0.18 -0.12 -0.28 -0.25 -0.17 | 0/18 |
| S25L L30P S38A W56N | -0.16 -0.25 -0.35 -0.46 -0.40 -0.17 | 0/18 |
| S25L S26Q Q27M V29W W56N T59Q | 0.24 0.25 0.17 0.07 0.00 0.13 | 3/18 (2.81) |
| S25L V29W W56S | 0.19 0.50 -0.03 -0.25 0.19 0.06 | 0/18 |
| S25V Q27P V29E W56D | -0.22 -0.11 -0.16 -0.25 -0.37 -0.29 | 1/18 (2.86) |
| S25L V29E R34G W56N E61M | 0.70 0.41 0.83 0.71 0.72 0.99 | 0/18 |
| S25L S26P S38A W56H | 0.11 -0.08 -0.07 -0.12 -0.20 0.12 | 1/18 (3.53) |
| S25L L30Q W56S | 0.11 0.08 -0.12 -0.20 0.11 0.21 | 0/18 |
| S25L S26Q V29Q W56N E61S | -0.02 -0.21 -0.42 -0.21 -0.20 -0.06 | 2/18 (3.30) |
| K24H S25L V29W W56N E61M | 0.20 0.27 0.19 0.29 0.08 0.41 | 0/18 |
| S25L L30P W56H | 0.32 0.09 0.13 0.00 -0.01 0.12 | 0/18 |
| S25F S26E V29G W56N | -0.14 -0.54 -0.46 -0.44 -0.56 -0.39 | 0/18 |

The first 4 entries again:

{"changes": "S25V V29M W56N E61L", "log10 Kd (nM) by replicate": "0.33 0.11 -0.09 0.01 0.27 0.29", "signal with controls": "1/18 (3.92)"}
{"changes": "V29E K36F W56N", "log10 Kd (nM) by replicate": "0.29 -0.08 -0.22 -0.49 -0.21 -0.03", "signal with controls": "0/18"}
{"changes": "S25L Q27G V29M W56H", "log10 Kd (nM) by replicate": "0.42 0.26 0.34 0.04 0.31 0.30", "signal with controls": "2/18 (3.31)"}
{"changes": "S25L S26D V29W W56N T59Q E61L", "log10 Kd (nM) by replicate": "0.23 0.13 -0.17 -0.17 0.00 0.13", "signal with controls": "3/18 (3.11)"}

Values reported by Li et al. 2023, doi:10.1038/s41467-023-39022-2 (FLAb copy).